This is an account of results in ChEMBL document CHEMBL1833847, “Identification of potent c-Src inhibitors strongly affecting the proliferation of human neuroblastoma cells” (Bioorg Med Chem Lett, 2011).

The subject of this assay is SH-SY5Y. As to the kind of experiment: Antiproliferative activity against human SH-SY5Y cells assessed as cell viability after 72 hrs by XTT assay. Background: Tetrazolium dyes change colour on reduction, which living cells bring about.

As for `CSc1nc(Nc2ccccc2)c2cnn(CC(C)c3ccccc3)c2n1` (configuration not stated), the Activity result is “Dose-dependent effect”.

For `CC(C)(C)n1nc(-c2ccc(Cl)cc2)c2c(N)ncnc21`, the Activity entry is “Dose-dependent effect”.
